Sequences of proteins named here, by UniProt entry; tags and fusion partners are left off. Residues count along the entry.
UniProt P32241, 31-457: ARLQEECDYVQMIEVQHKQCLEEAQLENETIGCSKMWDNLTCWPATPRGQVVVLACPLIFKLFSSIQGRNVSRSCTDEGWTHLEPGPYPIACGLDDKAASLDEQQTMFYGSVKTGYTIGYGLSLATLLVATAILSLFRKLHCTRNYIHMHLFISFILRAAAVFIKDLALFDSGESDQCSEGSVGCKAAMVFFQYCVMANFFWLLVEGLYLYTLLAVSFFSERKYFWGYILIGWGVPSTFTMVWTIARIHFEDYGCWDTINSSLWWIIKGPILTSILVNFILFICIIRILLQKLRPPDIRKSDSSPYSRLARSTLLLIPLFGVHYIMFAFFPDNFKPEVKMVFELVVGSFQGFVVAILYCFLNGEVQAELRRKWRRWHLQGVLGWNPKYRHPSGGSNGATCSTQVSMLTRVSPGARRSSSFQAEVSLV

In publication PMC6248945, “Antibacterial properties of the pituitary adenylate cyclase-activating polypeptide: A new human antimicrobial peptide” (PLoS ONE, 2018):

Assays:
[1] = biological target: T1, human VPAC1 receptor (Homo sapiens, UniProt P32241); test: Radioligand binding assay, 125I-Ac-PACAP27; conditions: VPAC1 pIC50, CHO cells expressing human VPAC1; 0.05 nM 125I-Ac-PACAP27; 2h, room temperature
T1 construct: expressed in transfected cells
Experimental: (§1) Chinese hamster ovary (CHO) cells stably and individually expressing human receptor PAC1, VPAC1 or VPAC2 were grown in Ham’s F12 medium supplemented with 10% of fetal bovine serum (FBS), 2 mM L-glutamine, 100 UI/mL of penicillin and streptomycin (P/S) and 400 μg/mL of G418. The cell line was maintained at 37 °C in a humidified atmosphere of 5% CO2 and passages were performed by trypsinization when cells reached about 80% confluence.
(§2) Acetylated PACAP27 was radioiodinated using the chloramine-T oxidation technique and purified on a Sep-Pak C18 cartridge (Waters, Milford, MA, USA). Binding assays were performed using CHO cells stably transfected with the human PAC1, VPAC1 or VPAC2 receptor isoform. Cells were seeded at a density of 150,000 cells/well in 24-well plates. The next day, cells were washed with binding buffer (0.1% BSA, 25 mM Tris–HCl, 25 mM MgCl2, pH 7.4) for 10 min at room temperature. The solution was replaced with a fresh solution containing 0.05 nM of ^125I-Ac-PACAP27 and increasing concentrations of peptide (10^−14 to 10^-5M). After 2h of incubation at room temperature, cells were washed twice with the binding buffer and then lysed with sodium hydroxide (0.1 M). Cell-bound radioactivity was quantified using a γ-counter. Results were expressed as percentage of specific binding of ^125I-Ac-PACAP27.

[2] = biological target: T2, human VPAC2 receptor (Homo sapiens, UniProt P41587); test: Radioligand binding assay, 125I-Ac-PACAP27; conditions: CHO cells expressing human VPAC2; 0.05 nM 125I-Ac-PACAP27; 2h, room temperature; read-out: VPAC2 pIC50 (converted)
T2 construct: expressed in transfected cells
T2 sequence (P41587 24-438): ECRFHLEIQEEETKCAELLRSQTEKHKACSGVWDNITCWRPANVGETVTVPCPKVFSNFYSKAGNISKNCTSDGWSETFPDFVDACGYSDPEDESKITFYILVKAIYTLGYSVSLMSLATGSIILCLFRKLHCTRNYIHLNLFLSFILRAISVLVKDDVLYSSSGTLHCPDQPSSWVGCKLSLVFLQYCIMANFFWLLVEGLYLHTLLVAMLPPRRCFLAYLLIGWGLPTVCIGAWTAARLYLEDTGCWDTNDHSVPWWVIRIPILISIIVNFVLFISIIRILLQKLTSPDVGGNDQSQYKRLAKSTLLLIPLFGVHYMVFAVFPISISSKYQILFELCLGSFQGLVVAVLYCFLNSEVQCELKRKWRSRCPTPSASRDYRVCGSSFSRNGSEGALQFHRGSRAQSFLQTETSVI
Experimental: as §1, §2

IC50 [1]: 0.00355 µM | IC50 [2]: 0.0182 µM
SMILES: CC[C@H](C)[C@H](NC(=O)CNC(=O)[C@H](CC(=O)O)NC(=O)[C@H](CO)NC(=O)[C@@H](N)Cc1cnc[nH]1)C(=O)N[C@@H](Cc1ccccc1)C(=O)N[C@H](C(=O)N[C@@H](CC(=O)O)C(=O)N[C@@H](CO)C(=O)N[C@@H](Cc1ccc(O)cc1)C(=O)N[C@@H](CO)C(=O)N[C@@H](CCCNC(=N)N)C(=O)N[C@@H](Cc1ccc(O)cc1)C(=O)N[C@@H](CCCNC(=N)N)C(=O)N[C@@H](CCCCN)C(=O)N[C@@H](CCC(N)=O)C(=O)N[C@@H](CCSC)C(=O)N[C@@H](C)C(=O)N[C@H](C(=O)N[C@@H](CCCCN)C(=O)N[C@@H](CCCCN)C(=O)N[C@@H](Cc1ccc(O)cc1)C(=O)N[C@@H](CC(C)C)C(=O)N[C@@H](C)C(=O)N[C@@H](C)C(=O)N[C@H](C(=O)N[C@@H](CC(C)C)C(=O)NCC(=O)N[C@@H](CCCCN)C(=O)N[C@@H](CCCNC(=N)N)C(=O)N[C@@H](Cc1ccc(O)cc1)C(=O)N[C@@H](CCCCN)C(=O)N[C@@H](CCC(N)=O)C(=O)N[C@@H](CCCNC(=N)N)C(=O)N[C@H](C(=O)N[C@@H](CCCCN)C(=O)N[C@@H](CC(N)=O)C(=O)N[C@@H](CCCCN)C(N)=O)C(C)C)C(C)C)C(C)C)[C@@H](C)O [compound 1, PACAP38]
